Results taken from patent US20060246555A1, “Degradation of cyclic nitramines” (published 2006).

Protein sequences, listed by entry. Tags and fused reporters are not part of them. Lines headed by an entry give the natural chain unless they say otherwise; changes in a name come on top.
UniProt P36858: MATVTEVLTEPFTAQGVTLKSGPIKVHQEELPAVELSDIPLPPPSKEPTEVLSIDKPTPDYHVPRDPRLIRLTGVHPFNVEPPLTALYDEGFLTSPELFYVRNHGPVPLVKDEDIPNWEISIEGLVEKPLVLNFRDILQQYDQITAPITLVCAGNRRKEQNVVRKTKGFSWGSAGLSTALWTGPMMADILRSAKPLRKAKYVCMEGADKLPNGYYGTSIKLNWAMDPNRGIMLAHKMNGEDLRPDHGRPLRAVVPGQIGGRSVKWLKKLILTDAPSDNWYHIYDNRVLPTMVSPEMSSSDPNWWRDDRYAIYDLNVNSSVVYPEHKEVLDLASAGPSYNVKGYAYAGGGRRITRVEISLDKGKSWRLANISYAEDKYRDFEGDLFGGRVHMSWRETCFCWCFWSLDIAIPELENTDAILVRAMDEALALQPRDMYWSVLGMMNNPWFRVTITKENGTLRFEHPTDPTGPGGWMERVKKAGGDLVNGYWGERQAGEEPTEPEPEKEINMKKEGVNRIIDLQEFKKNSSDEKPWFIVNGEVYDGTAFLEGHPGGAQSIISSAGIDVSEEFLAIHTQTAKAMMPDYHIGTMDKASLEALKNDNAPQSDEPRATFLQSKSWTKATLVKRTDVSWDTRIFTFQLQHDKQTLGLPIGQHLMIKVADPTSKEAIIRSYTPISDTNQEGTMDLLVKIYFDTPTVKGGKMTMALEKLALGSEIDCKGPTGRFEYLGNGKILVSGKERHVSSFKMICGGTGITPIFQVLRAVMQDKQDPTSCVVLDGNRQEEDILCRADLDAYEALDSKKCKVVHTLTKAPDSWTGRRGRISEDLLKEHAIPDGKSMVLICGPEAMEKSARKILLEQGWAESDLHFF

Legend:
[1] = target: Aspergillus niger NAD(P)H: Nitrate oxidoreductase (EC 1.6.6.2) (Aspergillus niger, UniProt P36858); assay: Nitrate reductase catalyzed RDX transformation; conditions: for Concentration of Reactants/metabolites: RDX transformation, after 150 minutes of reaction, anaerobic, NADPH; for % Nitrogen recovery: of total nitrogen mass in the transformed RDX (86 μmole)
[2] = Photolysis of RDX in aqueous solution at 350 nm; conditions: for product amount, μmole ± SD: RDX (0.46 μmole) after 16 h of photolysis at 350 nm in water; for C-content % / N-content %: RDX after 16 h of photolysis at 350 nm
[3] = system: Diaphorase (EC 1.8.1.4) from Clostridium kluyveri; assay: RDX biotransformation assay with diaphorase; conditions: for Concentration of Reactants/metabolites: RDX transformation, pH 7.0, 27° C., anaerobic, NADH; for % Nitrogen recovery: of total nitrogen mass in the transformed RDX (78 μmole)
[4] = higher than RDX; cited from earlier work
[5] = system: Rhodococcus sp. strain DN22; assay: Aerobic degradation of RDX with Rhodococcus sp. strain DN22; conditions: pH 7
[6] = Alkaline hydrolysis of cyclic nitramines in aqueous solution

With NADPH the “Concentration of Reactants/metabolites” value ([1]; pH 7.0, 30° C.) was 280 µmol.
For O=CO, the “product amount, μmole ± SD” value [2] was 0.126 ± 0.026 µmol and the C-content % [2] was 9.1%.
In the case of Ammonium ion, the “Concentration of Reactants/metabolites” value [3] is reported as 62.0 µmol, the “% Nitrogen recovery” value [3] is reported as 13.0% and the “% Nitrogen recovery” value ([3]; listed as ammonium) is reported as 13%. The “Concentration of Reactants/metabolites” value ([1]; pH 7.0, 30° C.) was 88 µmol and the “% Nitrogen recovery” value [1] was 16.98%.
For “pentahydro-3,5-dinitro-1,3,5-triazacyclohex-1-ene”, the “rate of hydrolysis relative to RDX” value [4] is listed as 5 orders of magnitude.
With formamide the “fraction converted on incubation with nitrate reductase” value ([1]; 50 μM, with NADPH, one hour, pH 7.0, 30° C., formamide to HCHO and NH4+, hydrazine to NH4+) was “roughly 50%”, the “product amount, μmole ± SD” value [2] was 0.436 (a) μmole and the C-content % [2] was 31.5%. The N-content % [2] was 15.7% and the C-content % ([2]; listed as NH2CHO) was 31.9%.
With nitrate the “type of inhibition of nitrate reductase catalyzed RDX transformation” value ([1]; Lineweaver-Burk's plots, 0, 20, 100 μM nitrate) was “competitive inhibitor”.
With O=CNCN[N+](=O)[O-] the stability to light ([2]; 350 nm) was “degraded slowly”, the “product amount, μmole ± SD” value [2] was 0.205 ± 0.019 µmol and the N-content % [2] was 22.2%. For the same compound, the C-content % ([2]; listed as O2NNHCH2NHCHO (V)) was 31.5%, the C-content % ([2]; listed as O2NNHCH2NHCHO(V)) was 29.6% and the “persistence in incubation mixtures with strain DN22” value [5] was “persist indefinitely”. The “formation of 4-NDAB” value ([6]; pH 10, first three hours, RDX hydrolysis) was 0.04 pmol.
For Nitrite, the “Concentration of Reactants/metabolites” value [3] was 69.0 µmol, the “% Nitrogen recovery” value [3] was 15.0% and the “% Nitrogen recovery” value ([3]; listed as nitrite) was 15%.
For NADH, the “Concentration of Reactants/metabolites” value [3] was 110.0 µmol.
For [N-]=[N+]=O, the “Concentration of Reactants/metabolites” value [3] was 129.0 µmol, the “Concentration of Reactants/metabolites” value ([3]; listed as N2O) was 129 µmol and the “% Nitrogen recovery” value [3] was 55.0%. For the same compound, the “% Nitrogen recovery” value ([3]; listed as N2O) was 55%, the “Concentration of Reactants/metabolites” value ([1]; pH 7.0, 30° C.) was 148 µmol and the “% Nitrogen recovery” value [1] was 57.37%. For the same compound, the “product amount, μmole ± SD” value [2] was 0.160 ± 0.009 µmol, the N-content % [2] was 11.6% and the “half-life of N2O formation” value ([6]; RDX hydrolysis, pH 10) was 91 h. The “N2O present as share of total nitrous oxide expected to form” value ([6]; t=316 h, pH 10) was 91%.
For Cc1cc2nc3c(=O)[nH]c(=O)nc-3n(C[C@H](O)[C@H](O)[C@H](O)COP(=O)(O)O)c2cc1C, the “maximum RDX transformation activity of reconstituted deflavo enzyme” value ([3]; FMN concentration of 200 μM) was 85% and the “RDX transformation rate of free FMN” value ([3]; commercially available FMN in free form, NADH as electron donor, vs diaphorase-bound FMN) was “comparatively lower”.
